These results are taken from patent US20240122926A1, “APELIN RECEPTOR MODULATORS FOR TREATING MUSCLE CONDITIONS” (priority 2022, published 2024).

In general, EC50 refers to the midpoint of the concentration-response curve.

In this test the target is T1, human APLNR (Homo sapiens, UniProt P35414).
T1 sequence (P35414 1-380): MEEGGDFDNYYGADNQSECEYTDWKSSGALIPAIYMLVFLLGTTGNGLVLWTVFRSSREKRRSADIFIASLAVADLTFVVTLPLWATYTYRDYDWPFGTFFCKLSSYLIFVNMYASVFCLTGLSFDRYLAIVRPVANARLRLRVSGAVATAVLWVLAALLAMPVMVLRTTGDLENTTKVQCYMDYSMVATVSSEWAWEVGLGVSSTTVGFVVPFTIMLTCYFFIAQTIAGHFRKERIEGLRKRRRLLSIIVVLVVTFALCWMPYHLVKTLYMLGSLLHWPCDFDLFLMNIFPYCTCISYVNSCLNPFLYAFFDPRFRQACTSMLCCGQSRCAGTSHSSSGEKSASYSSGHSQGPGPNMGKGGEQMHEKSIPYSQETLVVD
Put plainly: cell-based. As for the experimental part: APLNR activation was determined by β-arrestin recruitment as measured by the ProLink […] complementation technology (93-0001, DiscoveRx). In brief, CHO cells stably expressing APLNR were seeded and incubated overnight at 37° C. The compounds were tested in duplicate and diluted to obtain a 10-point curve with 3-fold serial dilutions (<1% DMSO). The compounds and cells were incubated for 3 hours at 37° C. After the incubation period the detection reagents were added and the plate chemiluminescent signal was measured after 30 min at RT.

`COc1cccc(OC)c1-n1c(NS(=O)(=O)[C@@H](C)[C@H](C)c2ncc(C)cn2)nnc1-c1cncc(C)c1` [BGE-105, (2S,3R)—N-(4-(2,6-dimethoxyphenyl)-5-(5-methyl-3-pyridinyl)-4H-1,2,4-triazol-3-yl)-3-(5-methyl-2-pyrimidinyl)-2-butanesulfonamide] yielded an EC50 of 0.1 nM.
